Measured values reported in US9567367B2, “Synthetic peptides for treatment of bacterial infections” (priority 2012, dated 2017).
Like-named read-outs stand apart in the source and are kept apart here.

Key:
[1] = pig, in vivo, 5 mg/kg
[2] = in vivo
[3] = human, in vivo
[4] = in vivo; conditions: mouse, iv, 5 mg/kg
[5] = test system: S. pyogenes; conditions: mouse, in vivo
[6] = mouse, in vivo, 5 mg/kg
[7] = clinical; conditions: human, in vivo, iv, 0.45 mg/kg
[8] = human, in vivo; remark: listed apart in the source
[9] = mouse, in vivo, iv, 5 mg/kg
[10] = in vivo; conditions: pig, iv, 5 mg/kg
[11] = pig, in vivo, iv, 5 mg/kg

For `CSCC[C@H](NC(=O)[C@@H]1CCCN1C(=O)[C@H](CO)NC(=O)[C@@H](C)N)C(=O)N[C@@H](CC(C)C)C(=O)N[C@H](C(=O)N[C@@H](C)C(=O)N[C@@H](Cc1ccc(O)cc1)C(=O)N[C@@H](CC(=O)O)C(=O)N[C@H](C)C(=O)O)C(C)C` [D-Ala-p2TA, (D-A)SPMLVAYD(D-A)], the toxic effects [1] was “showed no toxic effects”, the half-life [2] was 1 to 2.6 min and the Vd [3] was roughly 0.2 L/kg. It also gave an AUC ([3]; iv, 0.45 mg/kg) of 119 ng·h/mL, a Cmax ([3]; iv, 0.45 mg/kg) of 700 ng/mL and a clearance ([3]; iv, 0.45 mg/kg) of 69 mL/min/kg. The half-life ([3]; iv, 0.45 mg/kg) was 1.83 min, the Vd [4] was 0.231 L/kg and the “kidney and liver functions, treated vs untreated infected mice” value [5] was “no observable differences or abnormalities”. For the same molecule, the toxic effects [6] was “showed no toxic effects”, the Vd [7] was 0.191 L/kg and the “systemic exposure as measured by Cmax and AUC vs dose” value [8] was “appears to be dose proportional”. For the same molecule, the “T1/2 in plasma, all cohorts” value ([8]; iv) was “a little over one minute”, the AUC [9] was 1380 ng·h/mL and the Cmax [9] was 21700 ng/mL. The clearance [9] was 60.4 mL/min/kg, the half-life [9] was 2.65 min and the Vd [10] was 1.38 L/kg. It also gave an AUC [11] of 100 ng·h/mL, a Cmax [11] of 1750 ng/mL and a clearance [11] of 829 mL/min/kg. The half-life [11] was 1.3 min.
